Data from patent US11707512B2, “Cancer vaccine composition” (priority 2007, dated 2023).

Key:
[1] = tested on: peptide-pulsed autologous B-LCL cells
[2] = tested on: WT1187 peptide-pulsed B-LCLs

## CSCC[C@H](NC(=O)[C@@H](N)CCCNC(=N)N)C(=O)N[C@@H](Cc1ccccc1)C(=O)N1CCC[C@H]1C(=O)N[C@@H](CC(N)=O)C(=O)N[C@@H](C)C(=O)N1CCC[C@H]1C(=O)N[C@@H](Cc1ccc(O)cc1)C(=O)N[C@@H](CC(C)C)C(=O)O [WT1126]
[1]
  cytotoxic activity of peptide-induced CTLs against B-LCL cells pulsed with the inducing peptide, compared with non-pulsed B-LCL cells: stronger cytotoxic activity
0206K562 cells
  cytotoxic activity against 0206K562 cells (WT1-expressing, HLA-A*0206-positive) compared with K562 cells (and KH88, JY cells): significant cytotoxic activity
  cytotoxic activity against non-WT1-expressing and/or HLA-A*0206-negative cells: no cytotoxic activity
[2]
  inhibition of cytotoxic activity of peptide-specific CTLs by anti-HLA class I antibody: can be inhibited
